Reference: patent US10465009B2, “BCMA antigen binding proteins” (Amgen Inc., priority 2012, dated 2019)
“Also recorded” adds a separate entry of the source.

Tested on: H929 luciferase-labeled myeloma cells
Test: H929-luc bone-tropic xenograft model (incl. serum human IgG FLC kappa ELISA)
Assay type: in vivo, NSG mice
Details: for antitumor effect (hind limb bioluminescence): single IV treatment day 14, 250 ug DM1/kg (10 mg Ab/kg)
Description: In short, H929 luciferase-labeled myeloma cells that express an average of approximately 24,000 BCMA sites per cell were administered intravenously (1×10^6 cells) into NSG mice. Fourteen days after tumor inoculation, tumor-bearing animals were randomized based on hind limb bioluminescence (tumor burden) into groups of ten animals each and dosed intravenously once. A blinded dosing study of 2A1CV5-MCC-DM1, unconjugated 2A1CV5 and control conjugate employing a single dose of 250 ug DM1/kg (10 mg Ab/kg) was performed in this established bone-tropic tumor model. No nutritional supplementation was provided.
• 1×10^6 cells H929-luc cells, IV • Mice distributed into equal groups determined by hind limb BLI, Day 14 • Single treatment of antibody at 10 mg/kg, I.V., Day 14 • BLI measured 2×/week (blinded) • Study endpoint day 35 • 80 NSG (NOD/SCID IL2Rg−/−) mice were injected intravenously on Jan. 13, 2011, 1×10^6 H929luc cells • BLI was measured twice per week • Day 14 mice were distributed into five equivalent groups (n=10) based on hind limb tumor burden, as measured by BLI • Treatment plan: one I.V. injection • Treatment groups blinded and include: • Vehicle (PBS) • Anti-huBCMA-huIgG1-2A1-CV5 (unconjugated) • Anti-huBCMA-huIgG1-2A1-CV5-MCC-DM1 • Anti-huBCMA-huIgG1-2A1-WT-MCC-DM1 • Anti Streptavadin-MCC-DM1 • Anti-huBCMA-2A1-CV5-MCC-DM1 used at 10 mpk • Anti-huBCMA-2A1-WT-MCC-DM1 and anti Streptavadin-MCC-DM1 were normalized based on maytansinoid drug equivalents of 2A1-CV5-MCC-DM1 at 10 mpk • Timing: injected H929luc cells, ADC treatment began on day 14, analysis on day 35
Human immunoglobulin molecules consist of two heavy chains which define class (IgG, IgA, IgM, IgD, IgE) and identical light chains (kappa or lambda). In healthy individuals the majority of light chains in serum exist bound to heavy chains. Free Light Chains (FLC) are a natural product of B lymphocytes and represent a unique biomarker of neoplastic and reactive B cell related disorders. Increased FLC are associated with various malignant plasma disorders. Detection of FLC is an important diagnostic aid for a variety of diseases including multiple myeloma, smoldering myeloma and monoclonal gammopathy of undetermined significance. Human IgG FLC kappa ELISA (Biovendor, RD 194088100R-K) was used to analyze presence of FLC in sera from H929 xenografts. Kappa light chain antibodies were not detected in sera of mice 18 days after being treated with 2A1CV5-MCC-DM1, but were detected in sera of mice receiving vehicle (PBS) or isotype control conjugate (anti-Streptavidin-MCC-DM1) (see FIGS. 38 and 39).

B1: 2A1CV5-MCC-DM1 (conjugate)
heavy: EVQLVESGGGLVKPGGSLRLSCAASGFTFGDYALSWFRQAPGKGLEWVGVSRSKAYGGTTDYAASVKGRFTISRDDSKSTAYLQMNSLKTEDTAVYYCASSGYSSGWTPFDYWGQGTLVTVSSASTKGPSVFPLAPSSKSTSGGTAALGCLVKDYFPEPVTVSWNSGALTSGVHTFPAVLQSSGLYSLSSVVTVPSSSLGTQTYICNVNHKPSNTKVDKKV[omitted - human IgG1 Fc]
light: QSVLTQPPSASGTPGQRVTISCSGSSSNIGSNTVNWYQQLPGTAPKLLIFNYHQRPSGVPDRFSGSKSGSSASLAISGLQSEDEADYYCAAWDDSLNGWVFGGGTKLTVLGQPKAAPSVTLFPPSSEELQANKATLVCLISDFYPGAVTVAWKADSSPVKAGVETTTPSKQSNNKYAASSYLSLTPEQWKSHRSYSCQVTHEGSTVEKTVAPTECS
Sera of mice 18 days after treatment
  human kappa free light chain in sera (ELISA): not detected; also recorded: not in sera
Single IV treatment day 14
  lytic bone lesions: not observed
  antitumor effect (hind limb bioluminescence): complete tumor regression
Listed as Ab-1 ADC
  antitumor effect (hind limb bioluminescence): Complete tumor regression
